# Reference: ChEMBL document CHEMBL1135532, “Synthesis of potent leukotriene A(4) hydrolase inhibitors. Identification of 3-[methyl[3-[4-(phenylmethyl)phenoxy]propyl]amino]propanoic acid” (J Med Chem, 2002)
# Columns and labels:
# [1] = target: T1, Leukotriene A-4 hydrolase (Homo sapiens, UniProt P09960); assay: Inhibition of human leukotriene A4 hydrolase (LTA-4).
# T1 sequence (P09960 whole entry): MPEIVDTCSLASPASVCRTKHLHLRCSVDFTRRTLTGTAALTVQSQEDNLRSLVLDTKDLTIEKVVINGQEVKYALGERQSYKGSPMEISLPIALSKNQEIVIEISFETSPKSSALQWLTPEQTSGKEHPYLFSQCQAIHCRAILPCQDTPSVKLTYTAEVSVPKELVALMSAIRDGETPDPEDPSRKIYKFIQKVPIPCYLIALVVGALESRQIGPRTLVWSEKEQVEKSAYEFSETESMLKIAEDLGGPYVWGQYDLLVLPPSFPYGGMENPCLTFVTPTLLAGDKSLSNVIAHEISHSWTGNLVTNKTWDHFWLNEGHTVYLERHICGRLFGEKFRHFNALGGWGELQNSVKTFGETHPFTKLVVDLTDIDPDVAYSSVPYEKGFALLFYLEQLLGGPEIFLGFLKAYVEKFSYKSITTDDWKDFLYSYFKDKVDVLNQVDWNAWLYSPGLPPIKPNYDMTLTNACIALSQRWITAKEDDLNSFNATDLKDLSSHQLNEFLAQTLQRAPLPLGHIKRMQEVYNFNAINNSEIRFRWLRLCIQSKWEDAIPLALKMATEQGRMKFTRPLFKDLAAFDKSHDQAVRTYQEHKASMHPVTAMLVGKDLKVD
# [2] = target: T1, Leukotriene A-4 hydrolase; assay: Inhibition of human whole blood LTB-4 production (Leukotriene B-4).; type: functional
compound,measurement,setting,value
CN(CCCOc1ccc(Cc2ccccc2)cc1)CCC(=O)O.Cl,IC50,[1],2.5 nM
same,IC50,[2],49 nM
